Reference: ChEMBL document CHEMBL1135324, “Quaternary salts of E2020 analogues as acetylcholinesterase inhibitors for the reversal of neuromuscular block” (Bioorg Med Chem Lett, 2002)

Chains of the proteins cited; added tags and fusions are not shown. Lines headed by an entry give the natural chain unless they say otherwise; changes in a name come on top.
UniProt P22303: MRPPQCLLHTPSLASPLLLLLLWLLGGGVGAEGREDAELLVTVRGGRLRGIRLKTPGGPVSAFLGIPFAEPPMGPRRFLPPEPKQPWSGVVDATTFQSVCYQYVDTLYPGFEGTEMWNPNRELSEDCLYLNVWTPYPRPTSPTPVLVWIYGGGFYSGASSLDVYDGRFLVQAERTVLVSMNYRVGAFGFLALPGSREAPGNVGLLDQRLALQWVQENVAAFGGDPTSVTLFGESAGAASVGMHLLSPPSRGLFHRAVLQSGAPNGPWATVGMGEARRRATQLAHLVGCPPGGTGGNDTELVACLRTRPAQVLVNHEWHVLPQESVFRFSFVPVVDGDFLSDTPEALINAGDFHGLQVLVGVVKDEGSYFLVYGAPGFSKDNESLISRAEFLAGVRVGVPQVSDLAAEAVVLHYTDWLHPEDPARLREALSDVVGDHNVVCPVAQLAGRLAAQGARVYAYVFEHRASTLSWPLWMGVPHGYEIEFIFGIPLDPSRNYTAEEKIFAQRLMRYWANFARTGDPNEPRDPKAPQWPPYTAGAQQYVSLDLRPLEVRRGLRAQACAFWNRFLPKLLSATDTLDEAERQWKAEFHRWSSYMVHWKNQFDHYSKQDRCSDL

Legend:
Acetylcholinesterase [1] = molecular target: T1, Acetylcholinesterase (Homo sapiens, UniProt P22303); assay: In vitro inhibition of human recombinant AChE.
Acetylcholinesterase [2] = molecular target: T1, Acetylcholinesterase

**Q.** With `O=C(CCC1CCN(Cc2ccccc2)CC1)c1ccc2c(c1)NCCCC2` [ZANAPEZIL] as the compound, how does the IC50 (Acetylcholinesterase [1]) read?
**A.** < 500 nM

**Q.** And the EC50 (Acetylcholinesterase [2])?
**A.** 1140 nM
